Measurements taken from patent publication US20250356957A1, “EMULATOR OF SUBCUTANEOUS ABSORPTION AND RELEASE” (UNIVERSITY OF KANSAS, priority 2022, published 2025).

Conditions: 0.5-mL injection of 30 mg/mL solution

Substance: Bovine serum albumin [BSA]
- release fraction (%) (2.5-mg/mL HA solution): ~28%
- release fraction (%) (5-mg/mL HA solution): ~21%
- release fraction (%) (7.5-mg/mL HA solution): ~24%
- release fraction (%) (subcutaneous chamber filled with PBS): ~52%

Like-named read-outs stand apart in the source and are kept apart here.
